The test system of the series is CHO cell line expressing both subunits of human FSH. In words: Total viable cells ratio (TVC ratio) during antioxidant test period. Particulars: end of test/start of test, >=1.0 = no toxic effect. The format is cell-based, Chinese Hamster. The procedure:
All experiments were performed with a CHO cell line expressing both subunits of human FSH. The produced protein is a dimeric gonadotropin further referred to as rFSH. The alpha subunit corresponds to SwissProt Accession No. P01215 and the beta subunit corresponds to SwissProt Accession No. P01225.
At least 2.4.10^9 viable rFSH-producing cells were transferred to a 15 L bioreactor with an effective working volume of 11 L (newMBR, Zürich) comprising microcarriers. Immediately after seeding followed a batch phase that lasted for two or three days. The bioreactor was then continuously fed with SFM to a dilution rate of 1 day^−1 and to a perfusion rate at 11 L·day)^−1.
The total viable cell concentration is defined as the sum of the concentration of cells attached on microcarriers and the concentration of viable cells in suspension.
The Total Viable Cells Ratio (TVC Ratio) for was calculated as follows: [total viable cell concentration, end of test]/[total viable cell concentration, start of test] wherein the start of test is defined as the day at which a new antioxidant is introduced in the culture, and the end of test is defined as the day before the next antioxidant is introduced in the culture.
The total viable cell concentration, the GCR and the rFSH titers were measured daily.

Consider `N[C@@H](CS)C(=O)O` [L-cysteine, reference compound], for which the “TVC Ratio” value by setting is: (Run 1, 280 mg/L, WD10 to WD20) 8.6; (Run 2, 280 mg/L, WD0 to WD20) 6.3; (Run 2, 350 mg/L, WD40 to WD50) 1.0.
